Holding throughout (details): 72 h, Table 1-1
One experiment deals with Huh-7. Briefly: Anticancer activity test (CCK-8), Huh-7 cells. As for the experimental part:
(§1) Cells in logarithmic growth phase were digested, centrifuged, and counted; the cell suspension was adjusted to a concentration of 1500-3500 cells/well, and 95 µL was seeded into each well of a 96-well plate.
(§2) After continued overnight culture, drugs at different concentrations were added to the plate, with six replicate wells for each concentration. 10 µL of the drug was added to each well, followed by incubation for 72 h. Then, 10 µL of CCK-8 solution was added to each well (care should be taken to avoid generating bubbles in the wells, as they can affect the OD reading). After incubation in the incubator for 1-4 h, the OD value at 450 nm was measured using a microplate reader. The experiment to assess the effect of each drug on each cell line at different time points was repeated three times.
(§3) Data were processed using EXCEL software to calculate the inhibition rate at different concentrations, and SPSS was used to fit the IC50 value. EXCEL was used to calculate the mean and standard deviation of the three IC50 values. Inhibition rate % = {1 - (OD value of drug well - OD value of blank well) / (OD value of control well - OD value of blank well) } * 100%. Table 1-1 Activity of Compounds in Inhibiting Cancer Cells

The test system of a further experiment is U-118. Briefly: Anticancer activity test (CCK-8), U-118 cells. The procedure:
as §1, §2, §3

The subject of a further experiment is HT-29. The experiment can be described thus: Anticancer activity test (CCK-8), HT-29 cells. As for the experimental part: as §1, §2, §3
In another experiment the test system is PANC-1 Cells. The experiment can be described thus: Anticancer activity test (CCK-8), PANC-1 cells. The procedure: as §1, §2, §3
The subject of a further experiment is H520. Briefly: Anticancer activity test (CCK-8), H520 cells. The procedure:
as §1, §2, §3

The values below come from patent EP4840863A1, “FLUORINE-CONTAINING PARTHENOLIDE DERIVATIVE, PREPARATION METHOD THEREFOR AND USE THEREOF” (dated 2026).

Usually IC50 stands for the concentration at which inhibition is half-maximal. Read a low IC50 as inhibition by little substance. Turning to `C=C1C(=O)OC2C1CCC(CSC(F)(F)F)=CCCC1(C)OC21` (stereo not shown), the half-inhibitory concentration (IC50) is 2.9 µM in the experiment with Huh-7; 3.15 µM in the experiment with U-118; 2.93 µM in the experiment with HT-29; 2.23 µM with PANC-1 Cells; 2.12 µM in the experiment with H520.

Take `C=C1C(=O)OC2C1CCC(CSC#N)=CCCC1(C)OC21` (stereo not shown): the IC50 turned out to be 5.61 µM with Huh-7; 3.29 µM in the experiment on U-118; 4.87 µM in the experiment with HT-29; 4.04 µM in the experiment on PANC-1 Cells; 6.95 µM in the experiment on H520.

As for `CN(C)CC1C(=O)OC2C1CCC(CC(F)(F)F)=CCCC1(C)OC21` (stereo not shown) [Compound 3], the concentration for half-maximal inhibition (IC50) with Huh-7 worked out at 5.46 µM; in the experiment with U-118, 5.03 µM; with HT-29, 6 µM; with PANC-1 Cells, 8.8 µM; in the experiment on H520, 4.49 µM.

For the compound `C=C1C(=O)O[C@@H]2[C@H]3O[C@]3(C)CC/C=C(\C)CC[C@@H]12`, the IC50 amounted to 5.58 µM with Huh-7; 3.84 µM in the experiment on U-118; 5.16 µM with HT-29; 6.98 µM with PANC-1 Cells; 3.79 µM in the experiment with H520.

For the compound `CN(C)CC1C(=O)OC2C1CCC(CC(F)(F)F)=CCCC1(C)OC21` (stereo not shown) [Compound 2], the half-maximal inhibitory concentration (IC50) with Huh-7 came to 3.93 µM; in the experiment on U-118, 4.3 µM; in the experiment with HT-29, 5 µM; in the experiment with PANC-1 Cells, 6.35 µM; with H520 it was 3.28 µM.
